The assay addresses FKBP12 (Homo sapiens, UniProt P62942). Kind of assay: Ki test procedure: inhibition of peptidyl-prolyl isomerase (rotamase) activity, chymotrypsin-coupled assay. Type of assay: biochemical. The following applies: apparent Ki. An excerpt:
The compounds used in the pharmaceutical compositions have an affinity for the FK506 binding protein, particularly FKBP12. The inhibition of the prolyl peptidyl cis-trans isomerase activity of FKBP may be measured as an indicator of this affinity.
Inhibition of the peptidyl-prolyl isomerase (rotamase) activity of the compounds used in the pharmaceutical compositions can be evaluated by known methods described in the literature (Harding et al., Nature, 1989, 341:758-760; Holt et al. J. Am. Chem. Soc., 115:9923-9938). These values are obtained as apparent Ki's and are presented for representative compounds in TABLE III.
The cis-trans isomerization of an alanine-proline bond in a model substrate, N-succinyl-Ala-Ala-Pro-Phe-p-nitroanilide, is monitored spectrophotometrically in a chymotrypsin-coupled assay, which releases para-nitroanilide from the trans form of the substrate. The inhibition of this reaction caused by the addition of different concentrations of inhibitor is determined, and the data is analyzed as a change in first-order rate constant as a function of inhibitor concentration to yield the apparent Ki values.
In a plastic cuvette are added […] of ice cold assay buffer (25 mM HEPES, pH 7.8, 100 mM NaCl), 10 mL of FKBP (2.5 mM in 10 mM Tris-Cl pH 7.5, 100 mM NaCl, 1 mM dithiothreitol), 25 mL of chymotrypsin (50 mg/ml in 1 mM HCl) and […] of test compound at various concentrations in dimethyl sulfoxide. The reaction is initiated by the addition of 5 mL of substrate (succinyl-Ala-Phe-Pro-Phe-para-nitroanilide, 5 mg/mL in 2.35 mM LiCl in trifluoroethanol).
The absorbance at 390 nm versus time is monitored for 90 seconds using a spectrophotometer and the rate constants are determined from the absorbance versus time data files.

Protein sequences, listed by entry. Tags and fused reporters are not part of them.
UniProt P62942, whole entry, species assumed: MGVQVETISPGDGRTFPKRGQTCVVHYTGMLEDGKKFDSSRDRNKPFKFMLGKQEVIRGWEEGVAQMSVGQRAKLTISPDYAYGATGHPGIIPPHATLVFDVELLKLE

With `COC(=O)C(=O)N1CCCC[C@H]1C(=O)OCCCCC1CCCCC1` [Compound 17], the Ki came to 6000 nM.
As for `COc1cc(C(=O)C(=O)N2CCCC[C@H]2C(=O)OCc2cccc(Oc3ccccc3)c2)cc(OC)c1OC` [Compound 22], the Ki is 18 nM.
With `COc1cc(C(=O)C(=O)N2CCCC[C@H]2C(=O)OCCCCC2CCCCC2)cc(OC)c1OC` [Compound 21] the figure was 40 nM.

(Values after patent EP1083874B1, “Use of a compound for the preparation of a medicament for treating alopecia or promoting hair growth in an animal” (GPI NIL Holdings, Inc., priority 1998, dated 1999).)
